# Antibody variant affinities, Ab-91 heavy chain, assay 2

Binding partner: SARS-CoV-2 spike HR2 peptide, sequence PDVDLGDISGINAS.

Ab-91 is the parent antibody, in scFv form: VL, then a 15-residue (Gly4Ser)3 linker, then VH. The light chain is unchanged in all variants.
VL: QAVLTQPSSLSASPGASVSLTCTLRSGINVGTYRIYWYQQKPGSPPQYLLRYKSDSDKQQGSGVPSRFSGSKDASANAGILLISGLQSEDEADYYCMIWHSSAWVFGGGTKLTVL
VH: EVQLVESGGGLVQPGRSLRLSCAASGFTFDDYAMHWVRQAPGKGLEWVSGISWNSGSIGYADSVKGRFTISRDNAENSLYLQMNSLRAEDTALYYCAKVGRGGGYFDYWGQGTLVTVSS

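Phage display of a naive human antibody library on the peptide gave the parent. Variants in AAYL51 differ from the parent at up to three CDR positions; double and triple changes were sampled at random. AlphaSeq pools MATa yeast showing the antibodies with MATalpha yeast showing the peptide. Mating (16 h, 30 °C) was followed by selection of diploids and sequencing of their barcodes. Scores were corrected for input abundance and mapped to Kd with protein pairs of known affinity run in the same pool. Each pool was mated in three replicate cultures.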

Variants are written as CDR1, CDR2 and CDR3 of the heavy chain (limits as in the source). Parent: GFTFDDYAMH, GISWNSGSIGYADSVK, VGRGGGYFDY.
Values are log10 of the apparent Kd in nM; lower means stronger binding.
Where no diploid with the target was found in that replicate, the entry reads "nd": below detection, most likely a poor binder, though not proof of it.

CDR-H1	CDR-H2	CDR-H3	replicates, log10 nM	signal with controls
GFTFDDYAMH	GISWNVGSITYADSVK	VGRGGRYFDY	4.85 nd 4.71	2 of 9 (4.25)
GFTKDDYAMH	GISWNSGSIGYEDSVK	VGRGGGYFDK	3.65 4.60 nd	1 of 9 (3.90)
GFTFDDYAMH	GISWDSGIIGEADSVK	VGRGGGYFDY	2.47 2.27 3.00	1 of 9 (4.16)
GFTFDDDAMH	GISWNSGSIGYALSVA	VGRGGGYFDY	4.29 nd nd	1 of 9 (5.57)
GFTKDDYAMH	GISWNSGSIGTADSVK	VGRGGGYFDY	nd 5.64 nd	2 of 9 (3.39)
GFTFDDYAMH	GISWNSGNIGYADSVK	VGRGGGYPDG	2.06 1.83 1.99	1 of 9 (4.70)
GFTFDNYAMH	GISWNSGSIGYADSVK	VGRTGGYFDY	4.64 nd 4.91	2 of 9 (4.29)
GFTVDDYAMH	GISWNSGMIGYWDSVK	VGRGGGYFDY	5.31 nd nd	0 of 9
GFTFDDYAMH	GHSWNSGSIGYADSVK	VGRGGGYFDY	4.64 4.44 nd	2 of 9 (4.10)
GFTFDDIAMH	GISWNQGSIGYADSVD	VGRGGGYFDY	nd 6.29 nd	3 of 9 (4.85)
GFTFDAYAMH	GISWNSGDIGYADSVK	VGRGGGYFDY	0.81 0.79 -0.02	2 of 9 (4.32)
KFTFDDYAMH	GISWNSGSIGYADSVH	VGEGGGYFDY	nd 4.18 nd	4 of 9 (4.80)
GFTFDDYAMH	GISWNSGSIGYADSVK	VGRGGGYFIY	nd nd nd	1 of 9 (3.67)
GFTFWDYAMK	GISWNSGSIGYADSVK	VGRGGMYFDY	nd nd nd	1 of 9 (4.16)
GFTFDTYAMH	RTSWNSGSIGYADSVK	VGRGGGYFDY	nd nd nd	1 of 9 (3.87)
GFIFDDYAMH	GISWNSISIGYADSVK	VGRGGGYFDY	4.06 nd nd	2 of 9 (4.33)
GFWFDDYAMH	GISWNSGSIGYADSVK	VGENGGYFDY	2.67 2.50 2.43	5 of 9 (5.18)
GFTFDDYAMH	GISWNSGSIGYADSVK	VGRGSGYKHY	nd nd nd	4 of 9 (4.34)
GFTFDKYAMH	GISWNSGSIGYADSVK	VGRNGNYFDY	nd nd nd	0 of 9
GFTFDDYAMG	GISWNSGSYGYADSVK	VGVGGGYFDY	4.79 5.19 4.95	6 of 9 (4.82)
GFHFDDYAMH	GISVNSGSPGYADSVK	VGRGGGYFDY	3.22 3.83 3.81	3 of 9 (4.48)
GFTFDDYAMH	GISWNGGFIYYADSVK	VGRGGGYFDY	5.01 6.49 5.80	6 of 9 (4.64)
GFWFDDYAMH	GISWNSGSIGYADSWK	VGRGGYYFDY	4.22 nd nd	1 of 9 (4.23)
GFTFADYAMH	GISWNSGSMGYADSVK	NGRGGGYFDY	nd nd nd	0 of 9
GFTFRDYAMH	GISWNSGMIGYADSVK	VGRGGGYFDR	2.40 2.41 2.14	1 of 9 (3.93)
GFTFDDMAMH	GISWASGSIAYADSVK	VGRGGGYFDY	4.63 nd nd	1 of 9 (5.37)
GFTFDDYAMH	LISWNSGSIGYADPVI	VGRGGGYFDY	4.32 5.77 5.49	6 of 9 (4.48)
GFTFDDYATH	GISPNSGSIGYADSVK	VGRGGGYFDW	4.06 4.46 4.22	1 of 9 (3.67)
GFTFDDDAMH	GISSNSGSRGYADSVK	VGRGGGYFDY	nd nd 2.19	1 of 9 (3.35)
GFTFDDYAMH	GISWNSGSIGYCDSVK	VGRGGGYFDY	nd 4.24 2.62	1 of 9 (3.35)
GFTDDDYAMH	GISWNSGSIGYADSVM	VGRGGGRFDY	3.77 nd nd	1 of 9 (4.36)
GFQFDSYAMH	GISWNSGSIGYADSVK	VGRGGGYFDC	0.47 0.49 -0.34	2 of 9 (5.13)
GFTFDDAAMH	GISWNSGSIGYADVVK	VGRGGGYNDY	nd nd nd	0 of 9

As a blank, each scFv also met three strains without target: over library AAYL51, 21% of these pairings were detected, typically at 4.54 and seldom below 3.26. The control count says in how many pairings with the empty strains this scFv gave a signal, with their mean in brackets.
Parent in this assay: reference entry 1.86, copy in this library 0.88.

Reference: Engelhart et al. 2022, doi:10.1038/s41597-022-01779-4. File: FLAb, binding data.